Source: ChEMBL document CHEMBL4229498 (Bioorg Med Chem, 2018)

Species on record: Homo sapiens
Assay: Selectivity ratio of Ki for human CB2 receptor to Ki for human CB1 receptor

Row | SMILES | Ratio Ki
1 | O=C(NC1(C(F)(F)F)CCCC1)N1CCN(c2ncnc3c2nc(-c2ccccc2Cl)n3-c2ccc(Cl)cc2)CC1 | 54
2 | CC(C)(C)OC(=O)N1CCN(c2ncnc3c2nc(-c2ccccc2Cl)n3-c2ccc(Cl)cc2)CC1 | 680
3 | O=C(N1CCN(c2ncnc3c2nc(-c2ccccc2Cl)n3-c2ccc(Cl)cc2)CC1)C(F)(F)F | 130
4 | O=S(=O)(C1CC1)N1CCN(c2ncnc3c2nc(-c2ccccc2Cl)n3-c2ccc(Cl)cc2)CC1 | 460
5 | O=C(Nc1ccccc1)N1CCN(c2ncnc3c2nc(-c2ccccc2Cl)n3-c2ccc(Cl)cc2)CC1 | 400
6 | O=C(Nc1ccc(F)c(F)c1)N1CCN(c2ncnc3c2nc(-c2ccccc2Cl)n3-c2ccc(Cl)cc2)CC1 | 840
7 | CS(=O)(=O)N1CCN(c2ncnc3c2nc(-c2ccccc2Cl)n3-c2ccc(Cl)cc2)CC1 | 68
8 | CCS(=O)(=O)N1CCN(c2ncnc3c2nc(-c2ccccc2Cl)n3-c2ccc(Cl)cc2)CC1 | 330
9 | O=C(C1COc2ccccc2O1)N1CCN(c2ncnc3c2nc(-c2ccccc2Cl)n3-c2ccc(Cl)cc2)CC1 (stereo unspecified) | 122
10 | O=C(CN1CCCCC1)N1CCN(c2ncnc3c2nc(-c2ccccc2Cl)n3-c2ccc(Cl)cc2)CC1 | 238
11 | O=C(Nc1ccc(OC(F)F)nc1)N1CCN(c2ncnc3c2nc(-c2ccccc2Cl)n3-c2ccc(Cl)cc2)CC1 | > 1000
12 | CCCCS(=O)(=O)N1CCN(c2ncnc3c2nc(-c2ccccc2Cl)n3-c2ccc(Cl)cc2)CC1 | 830
13 | O=C(C1CCSCC1)N1CCN(c2ncnc3c2nc(-c2ccccc2Cl)n3-c2ccc(Cl)cc2)CC1 | 265
14 | O=C(NCC1CCCCC1)N1CCN(c2ncnc3c2nc(-c2ccccc2Cl)n3-c2ccc(Cl)cc2)CC1 | 17
15 | CC(C)S(=O)(=O)N1CCN(c2ncnc3c2nc(-c2ccccc2Cl)n3-c2ccc(Cl)cc2)CC1 | 700
16 | CCCS(=O)(=O)N1CCN(c2ncnc3c2nc(-c2ccccc2Cl)n3-c2ccc(Cl)cc2)CC1 | 710

Row | SMILES | Ratio Ki
17 | CCCCC(=O)N1CCN(c2ncnc3c2nc(-c2ccccc2Cl)n3-c2ccc(Cl)cc2)CC1 | 67
18 | O=C(Nc1ccc(F)cc1)N1CCN(c2ncnc3c2nc(-c2ccccc2Cl)n3-c2ccc(Cl)cc2)CC1 | 110
19 | O=C(NC1CCCCC1)N1CCN(c2ncnc3c2nc(-c2ccccc2Cl)n3-c2ccc(Cl)cc2)CC1 | 440
20 | CC(C)CS(=O)(=O)N1CCN(c2ncnc3c2nc(-c2ccccc2Cl)n3-c2ccc(Cl)cc2)CC1 | 1400
21 | CC(C)(C)CC(=O)N1CCN(c2ncnc3c2nc(-c2ccccc2Cl)n3-c2ccc(Cl)cc2)CC1 | > 2500
22 | O=C(Nc1ccccn1)N1CCN(c2ncnc3c2nc(-c2ccccc2Cl)n3-c2ccc(Cl)cc2)CC1 | 1200
23 | O=C(Nc1ccccc1F)N1CCN(c2ncnc3c2nc(-c2ccccc2Cl)n3-c2ccc(Cl)cc2)CC1 | 220
24 | CC(C(=O)N1CCN(c2ncnc3c2nc(-c2ccccc2Cl)n3-c2ccc(Cl)cc2)CC1)c1ccccc1 (stereo unspecified) | 190
25 | O=C(Nc1ccc(F)cc1F)N1CCN(c2ncnc3c2nc(-c2ccccc2Cl)n3-c2ccc(Cl)cc2)CC1 | 640
26 | O=S(=O)(CC1CCOCC1)N1CCN(c2ncnc3c2nc(-c2ccccc2Cl)n3-c2ccc(Cl)cc2)CC1 | 1000
27 | O=C(NC1CCCC1)N1CCN(c2ncnc3c2nc(-c2ccccc2Cl)n3-c2ccc(Cl)cc2)CC1 | 150
28 | O=S(=O)(CC1CCCCC1)N1CCN(c2ncnc3c2nc(-c2ccccc2Cl)n3-c2ccc(Cl)cc2)CC1 | 54
29 | O=S(=O)(CCC(F)(F)F)N1CCN(c2ncnc3c2nc(-c2ccccc2Cl)n3-c2ccc(Cl)cc2)CC1 | 420
30 | O=C(OC1CCC1)N1CCN(c2ncnc3c2nc(-c2ccccc2Cl)n3-c2ccc(Cl)cc2)CC1 | 1100
31 | O=C(CC1CCOC1)N1CCN(c2ncnc3c2nc(-c2ccccc2Cl)n3-c2ccc(Cl)cc2)CC1 (stereo unspecified) | 375
